{
  "source": "paper PMC3131519",
  "about": "(Frontiers in Microbiology, 2011)",
  "key": {"[1]": {"tested_on": "P. aeruginosa (ATCC 19429) biofilm", "assay": "Biofilm production", "type": "cell-based, Pseudomonas aeruginosa", "conditions": "1.0, 0.1 and 0.01 μg/ml peptide, TSB (86 mM NaCl), 24 h, 37°C, crystal violet, n = 6"}, "[2]": {"tested_on": "P. aeruginosa (ATCC 19429)", "assay": "Galleria mellonella infection by P. aeruginosa, treatment survival", "type": "in vivo", "conditions": "1 × 10^3 CFU P. aeruginosa, single dose 10 μg peptide"}, "[3]": {"tested_on": "red blood cells", "conditions": "100 μg/ml peptide; ref de Latour et al., 2010; Dean et al., 2011; cited from earlier work"}},
  "note": "Entries after “also recorded” stand apart in the source; their conditions may differ.",
  "data": [
    {"compound": "CC[C@H](C)[C@H](NC(=O)[C@@H](NC(=O)[C@H](CCCCN)NC(=O)[C@H](CC(C)C)NC(=O)[C@H](CCCCN)NC(=O)[C@H](CCCCN)NC(=O)[C@H](Cc1ccccc1)NC(=O)[C@H](Cc1ccccc1)NC(=O)[C@H](CCCCN)NC(=O)[C@H](CCCCN)NC(=O)[C@H](Cc1ccccc1)NC(=O)[C@H](CCCNC(=N)N)NC(=O)[C@H](CCCCN)NC(=O)[C@H](CCCCN)NC(=O)[C@@H](NC(=O)[C@H](CO)NC(=O)[C@H](CC(N)=O)NC(=O)[C@H](CCCCN)NC(=O)[C@H](CC(C)C)NC(=O)[C@H](CCCCN)NC(=O)[C@H](CCCCN)NC(=O)[C@H](Cc1ccccc1)NC(=O)[C@H](Cc1ccccc1)NC(=O)[C@H](CCCCN)NC(=O)[C@H](CCCCN)NC(=O)[C@H](Cc1ccccc1)NC(=O)[C@H](CCCNC(=N)N)NC(=O)[C@@H](N)CCCCN)C(C)C)C(C)C)C(=O)NCC(=O)N[C@H](C(=O)N[C@H](C(=O)N[C@@H](Cc1ccccc1)C(=O)N1CCC[C@H]1C(=O)N[C@@H](Cc1ccccc1)C(=O)O)[C@@H](C)O)C(C)C", "note": "[NA-CATH:ATRA1-ATRA1]", "values": [
      {"measurement": "anti-biofilm activity (inhibition of biofilm formation), in words", "setting": "[1]", "result": "lack of anti-biofilm activity; also recorded: ineffective in inhibiting biofilm formation"},
      {"measurement": "effectiveness at prolonging survival vs infected control, in words", "setting": "[2]", "result": "did not improve survival; also recorded: ineffective at prolonging survival"},
      {"measurement": "hemolysis", "setting": "[3]", "result": "no significant hemolysis"}
    ]}
  ]
}
